Assay: pKa values in water of the activators
Type: physicochemical

With `FC(F)(F)c1cc(-c2nn[nH]n2)cc(C(F)(F)F)c1` the pKa in H2O was 3.4.
